From publication PMC4676410 (Journal of medicinal chemistry, 2015)

System: CD4-dependent HIV-1ADA
Assay: Infectivity assay against CD4-dependent virus in Cf2Th/CD4-CCR5 cells
Conditions: read-out: IC50 against CD4-dependent virus; HIV-1ADA in Cf2Th/CD4-CCR5 cells

Work on `Cc1nc(C(NC(=O)c2ccc(-c3ccc(Cl)cc3)[nH]2)C2CCCCN2)sc1CO` (mixture of isomers) [NBD-11021, 5-(4-Chlorophenyl)-N-((5-(hydroxymethyl)-4-methylthiazol-2-yl)-(piperidin-2-yl)methyl)-1H-pyrrole-2-carboxamide] yielded an IC50 of 2400 ± 200 nM.
